Earlier results in patent publication US20260373185A1, “METHODS FOR SEQUENTIALLY ADMINISTERING TAS-102 AND BCL-2 INHIBITOR FOR CANCER TREATMENT” (Health Research, Inc., priority 2023, published 2026).

Molecular target: BCL-2
Settings: cell-free assays

In the case of CC1(C)CCC(c2ccc(Cl)cc2)=C(CN2CCN(c3ccc(C(=O)NS(=O)(=O)c4ccc(N[C@H](CCN5CCOCC5)CSc5ccccc5)c(S(=O)(=O)C(F)(F)F)c4)cc3)CC2)C1 [Navitoclax], the Ki is listed as no more than 1 nM.
